## Binding of CDR-mutated scFvs to a peptide of the spike HR2 region

From the AlphaSeq antibody data of Engelhart et al. 2022 (doi:10.1038/s41597-022-01779-4), copy in the FLAb collection.

Target: peptide PDVDLGDISGINAS, taken from heptad repeat 2 (HR2) of SARS-CoV-2 spike.

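Variants in AAYL51 differ from the parent at up to three CDR positions; double and triple changes were sampled at random. In AlphaSeq, yeast of one mating type display the scFv and yeast of the other type display the target. Binding brings cells together so that they mate, and sequencing counts the barcode pairs among the diploids. The ratio of observed to expected reads was calibrated, replicate by replicate, on BCL2-family standards whose Kd was known from biolayer interferometry. The assay was run in three technical replicates.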

Parent: Ab-91, a human scFv built as VL, the linker GGGGSGGGGSGGGGS, VH. Only the CDRs of the heavy chain vary.
VL: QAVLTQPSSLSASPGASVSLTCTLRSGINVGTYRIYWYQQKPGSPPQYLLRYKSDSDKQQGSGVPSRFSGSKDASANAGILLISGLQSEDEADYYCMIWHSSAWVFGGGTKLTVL
VH: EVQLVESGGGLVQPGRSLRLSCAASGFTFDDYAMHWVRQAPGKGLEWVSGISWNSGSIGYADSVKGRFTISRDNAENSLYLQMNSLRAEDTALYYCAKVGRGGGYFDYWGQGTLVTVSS

Each variant is given by its three heavy chain CDRs, as the data file delimits them; those of the parent are GFTFDDYAMH, GISWNSGSIGYADSVK, VGRGGGYFDY. Affinities are written as log10 Kd with Kd in nM; a lower number is a better binder. A pair that was not seen in that replicate is written "n.d."; this usually means weak binding, but a binder can also be missed. For reference, the parent read 1.86 as the reference entry and 0.88 as a member of this library.

"log10 Kd, replicates",CDR-H1,CDR-H2,CDR-H3
n.d. n.d. n.d.,WFTFDDYAMH,GISWNLGSIGYADSVG,VGRGGGYFDY
n.d. n.d. n.d.,GCTFDYYAMH,GISWNSGSIGYADSVW,VGRGGGYFDY
3.75 3.84 4.47,GFTFDDSAMH,GISWNSGSIGYATMVK,VGRGGGYFDY
n.d. 5.37 n.d.,GFTFDDYAMH,GVSWNSGSIGYADSQK,VGRGGWYFDY
5.51 3.07 5.16,GFTFDDYAMH,GISWNSGSIGYADSVK,EGRGGVYFKY
n.d. n.d. n.d.,IFTFDDYAMH,SISWASGSIGYADSVK,VGRGGGYFDY
5.45 5.44 n.d.,GFTFDDYAMH,GIYQNSGSIGYVDSVK,VGRGGGYFDY
0.57 0.80 -0.02,GFRFDDYARH,GISWNSGDIGYADSVK,VGRGGGYFDY
3.88 4.82 5.04,GFTFDDYAMH,GIDWNSGSIGYADSVK,VGPGGGEFDY
n.d. n.d. n.d.,GFTFDDYAMH,GISWNSGSIGYADSRK,VGRWGGYSDY
n.d. n.d. 4.72,GGTFDDYAMH,LISWNSESIGYADSVK,VGRGGGYFDY
4.91 6.16 5.33,GFTFDDYAVH,GISWKSGSIGYIDSVK,VGRGGGYFDY
4.73 6.16 4.75,GFTFDDYAMH,GISWFSGSIGYADSVK,VEYGGGYFDY
n.d. 4.33 n.d.,GFTFDCYAMH,GISWNSGSIGEADSIK,VGRGGGYFDY
n.d. n.d. n.d.,GFTFDDYAMH,GISWNSGGIGHADSVK,VGRGGGYFGY
2.85 n.d. n.d.,GFTFDDYADH,GISWNSYQIGYADSVK,VGRGGGYFDY
n.d. 6.22 5.06,PFTFDDYANH,GISWNSGSIGYADGVK,VGRGGGYFDY
n.d. n.d. n.d.,GFTFDDYAMH,GISWNSKSIGYADSVK,VGRGGGYFGW
1.35 1.47 0.87,GFTFDDYAMH,GISFNSGSIGYRDSVK,VGRGGGYFDY
n.d. n.d. n.d.,GFTFDDYAMH,GISWNSGSIGYADSVK,VIRGGGYVDY
3.86 4.21 5.02,GFTQDDYAMH,GISWNSGSIGYADCVK,VGRGGFYFDY
n.d. n.d. 4.41,RFTFDDYAMH,GISWYSGSIGYADSVK,VGRGCGYFDY
4.59 n.d. 5.33,GFNFDDYAMH,GISWNSGSIGYADFVP,VGRGGGYFDY
n.d. n.d. n.d.,GFTFDTYAMH,GISWNSPSIGYADSVK,VGRGGGYFVY
n.d. 5.30 n.d.,GDTFDDYAMH,GKSWNSGSIGYADSVK,VGRGGGYFDY
n.d. 3.28 n.d.,YFTFDDYAMH,GISWNSGSIGEAFSVK,VGRGGGYFDY
n.d. n.d. n.d.,GFTFDDYAMH,TISWNSGSIGYADSMK,VGRGGGYFGY
2.09 2.17 1.69,GFTFDDYAMH,GISWNSGSEGYADDVK,VGRGGTYFDY
4.49 4.38 n.d.,GFTFDDYVMH,GISWNSGSIMYADSVK,VGKGGGYFDY
n.d. n.d. n.d.,GFTFDDYAMK,GISWNRGSIGYADKVK,VGRGGGYFDY
4.97 n.d. 3.66,GFTFDDYAMD,GISWNSGSPGYADSVK,VGRGVGYFDY
n.d. 5.25 4.49,GFTFDDYAMI,GISLNSGSIGYADSVK,VHRGGGYFDY
2.90 4.70 3.91,GFTLLDYAMH,GISWNSGSIGYADWVK,VGRGGGYFDY
n.d. n.d. n.d.,GFWFDDYAMH,GISWNSGSMGYADSVP,VGRGGGYFDY
5.77 n.d. n.d.,GFNFDDYKMH,GISWNSGEIGYADSVK,VGRGGGYFDY
n.d. n.d. n.d.,DFTFGDYAMH,GISWNSGSIGYADSVK,VGNGGGYFDY
n.d. n.d. n.d.,GFTFDDYAMH,GIKWNSGSIGYADSVK,VGRGGGKFDY
4.64 4.01 n.d.,GFTFVDYAMH,GISWNNGSIGYADSVK,VGRGGTYFDY
2.76 2.60 2.73,GFEFDDYAMH,GISWNSGSIGYADSVK,VGDGGEYFDY

From the list, the first 3 with no signal in any replicate:

CDR-H1,CDR-H2,CDR-H3,"log10 Kd, replicates"
WFTFDDYAMH,GISWNLGSIGYADSVG,VGRGGGYFDY,n.d. n.d. n.d.
GCTFDYYAMH,GISWNSGSIGYADSVW,VGRGGGYFDY,n.d. n.d. n.d.
IFTFDDYAMH,SISWASGSIGYADSVK,VGRGGGYFDY,n.d. n.d. n.d.

Nonspecific signal, from three strains lacking the peptide, appeared in 21% of pairings of library AAYL51, centred on 4.54 (5% of these signals below 3.26); values are not corrected for it.